Assay results as given in BindingDB's records for doi:10.1016/S0968-0896(02)00561-8 (Purdue University, 2003).
Where “and” joins values, the source holds several entries; their conditions need not be identical. Identical values can stand only once.

Amino acid sequences for entries named in this document (tags omitted).
UniProt P61169, whole entry: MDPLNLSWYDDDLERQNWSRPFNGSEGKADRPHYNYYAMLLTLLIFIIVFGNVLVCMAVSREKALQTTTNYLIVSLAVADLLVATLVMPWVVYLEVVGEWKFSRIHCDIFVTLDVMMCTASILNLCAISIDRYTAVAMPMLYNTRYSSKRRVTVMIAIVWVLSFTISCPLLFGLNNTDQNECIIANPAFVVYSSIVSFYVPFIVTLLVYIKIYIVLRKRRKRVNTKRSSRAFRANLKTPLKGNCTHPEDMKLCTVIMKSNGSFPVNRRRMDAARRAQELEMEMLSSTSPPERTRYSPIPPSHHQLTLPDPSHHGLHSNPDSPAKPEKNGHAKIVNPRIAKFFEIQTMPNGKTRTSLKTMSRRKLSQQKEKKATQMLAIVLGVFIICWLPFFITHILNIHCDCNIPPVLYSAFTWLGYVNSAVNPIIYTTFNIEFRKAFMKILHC

Molecular target: D(2) dopamine receptor (Rattus norvegicus, UniProt P61169)

Ki: 0.053 µM and 0.025 µM
Compound: Oc1ccc2c(c1O)Cc1cccc3c1[C@H]2CNC3 [Dinapsoline, (R)(+)]
